# Yeast mating assay 1: variants of the scFv Ab-14

Reference: Engelhart et al. 2022, doi:10.1038/s41597-022-01779-4. File: FLAb, binding data.

The target is the same throughout: PDVDLGDISGINAS, from the HR2 region of SARS-CoV-2 spike.

Parent scFv Ab-14: VH joined to VL by the linker GGGGSGGGGSGGGGS. Changes lie in the light chain CDRs alone.
VH: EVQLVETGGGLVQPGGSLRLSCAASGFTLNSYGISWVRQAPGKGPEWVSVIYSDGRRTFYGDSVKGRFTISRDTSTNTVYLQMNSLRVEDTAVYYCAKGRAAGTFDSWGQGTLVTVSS
VL: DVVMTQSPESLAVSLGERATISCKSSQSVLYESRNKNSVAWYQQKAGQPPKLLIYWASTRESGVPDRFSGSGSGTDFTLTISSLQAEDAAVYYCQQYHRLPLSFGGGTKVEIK

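The starting antibody came from a phage panning campaign against this peptide. In library AAYL50, one, two or three CDR residues were substituted; doubles and triples were drawn at random. AlphaSeq pools MATa yeast showing the antibodies with MATalpha yeast showing the peptide. Pairs that bind mate more often; barcode pairs of the diploids are counted by sequencing. A regression on co-assayed BCL2-family reference pairs converts the normalised counts of each replicate to an apparent Kd. Mating was done three times.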

Substitutions are numbered in sequence along the VL above, starting at 1 (not Kabat).
Values are log10 of the apparent Kd in nM; lower means stronger binding.
The mean shown is taken over the replicates in which the pair was detected.
An entry "no signal" has no value in the source: the pair was not observed among the diploids in any replicate. This suggests poor binding but is not conclusive.
Order: sorted from the lowest average up, undetected variants last.
Three control strains display no target. For library AAYL50, 18% of the pairings with them gave a signal, with a median of 4.19 and one signal in twenty below 2.99, so weak values seen in few replicates may be background. Also given: how often the same scFv was detected with the empty control strains.
Parent in this assay: reference entry 0.65, copy in this library 1.68.

changes | mean, log10 nM | replicates with signal | empty controls
S33R+W56D+R99E | 0.01 | 3 of 3 | 5 of 9
K24R+R34G+Y97H | 0.36 | 3 of 3 | 2 of 9
V29G+Y31A+W56F | 0.57 | 3 of 3 | 1 of 9
Q27P+N35I+Q96G | 0.76 | 3 of 3 | 0 of 9
E61T+L100K | 0.96 | 3 of 3 | 1 of 9
L30N+E61I+H98E | 1.19 | 3 of 3 | 1 of 9
E32T+H98V | 1.23 | 3 of 3 | 1 of 9
S58Q+E61C | 1.32 | 3 of 3 | 0 of 9
S25C+N37Y+S38D | 1.44 | 3 of 3 | 3 of 9
Y97R+L100W+S103W | 1.55 | 3 of 3 | 3 of 9
T59W+S62N+S103M | 2.05 | 3 of 3 | 0 of 9
S26K+V29D+R99D | 2.06 | 3 of 3 | 3 of 9
Y31I+T59M+Y97F | 2.10 | 3 of 3 | 0 of 9
R34A+A40S+Q95G | 2.76 | 1 of 3 | 1 of 9
L30V+R34P+A40I | 2.91 | 1 of 3 | 1 of 9
L30N+N35I+S103Y | 3.00 | 3 of 3 | 2 of 9
E32V+A57T+L100A | 3.35 | 3 of 3 | 1 of 9
N37H+S58K+Q95P | 3.37 | 3 of 3 | 1 of 9
S28Q+T59G | 3.38 | 3 of 3 | 1 of 9
S28A+V39W+H98L | 3.46 | 1 of 3 | 0 of 9
S28C+V29T+E32C | 3.51 | 3 of 3 | 4 of 9
V39M+Q95R+P101L | 3.56 | 1 of 3 | 6 of 9
S26L+K36I+P101T | 3.66 | 1 of 3 | 0 of 9
K24T+S33W+R60A | 3.71 | 2 of 3 | 2 of 9
S33L+T59V+Q96G | 3.97 | 2 of 3 | 3 of 9
S28A+A40E+L102F | 4.02 | 1 of 3 | 2 of 9
K36V+S58V+R99T | 4.08 | 1 of 3 | 0 of 9
K24M+Q27N+E32L | 4.11 | 3 of 3 | 4 of 9
V39P+Q95K+Y97C | 4.13 | 1 of 3 | 2 of 9
S58Q+S62V+Q96Y | 4.14 | 1 of 3 | 2 of 9
V39W+S62Y+Q96S | 4.37 | 2 of 3 | 2 of 9
K24F+N37G+E61P | 4.48 | 2 of 3 | 0 of 9
W56A+R60F+R99M | 4.58 | 1 of 3 | 1 of 9
N35E+T59P+L100Y | 4.60 | 2 of 3 | 4 of 9
A40K+T59L+E61S | 4.67 | 2 of 3 | 3 of 9
R60M+Y97D+L100E | 4.78 | 3 of 3 | 3 of 9
Y31G+A40F+W56Q | 5.83 | 1 of 3 | 3 of 9
L100S+P101Y | 6.49 | 1 of 3 | 3 of 9
K24I+E32C+A57K | no signal | 0 of 3 | 1 of 9
K24Y+Q27M+S58N | no signal | 0 of 3 | 0 of 9
Q27R+Q95V+L100Y | no signal | 0 of 3 | 0 of 9
Q27I+Y31K+E61R | no signal | 0 of 3 | 0 of 9
N37Q+T59I+L100E | no signal | 0 of 3 | 3 of 9
Q27T+E61P+Y97E | no signal | 0 of 3 | 1 of 9
Q27F+S28N+T59W | no signal | 0 of 3 | 2 of 9
K24A+S58C+Q96V | no signal | 0 of 3 | 0 of 9
L30F+N37T+A40H | no signal | 0 of 3 | 0 of 9
S26F+S58A+Y97H | no signal | 0 of 3 | 1 of 9
Y31L+N35G+S38L | no signal | 0 of 3 | 0 of 9
K24A+L30D+A40G | no signal | 0 of 3 | 0 of 9
K24I+S38E+S62C | no signal | 0 of 3 | 1 of 9
R34H+R60A+Y97H | no signal | 0 of 3 | 0 of 9
Y31Q+S33K+H98G | no signal | 0 of 3 | 0 of 9
S33M+N37C+A57P | no signal | 0 of 3 | 0 of 9
V29E+A40D+T59N | no signal | 0 of 3 | 1 of 9
S28D+N35D+Q95D | no signal | 0 of 3 | 1 of 9
Y31C+L100I+L102F | no signal | 0 of 3 | 0 of 9

A selection of 6 entries from above:

| changes | mean, log10 nM | replicates with signal | empty controls |
|---|---|---|---|
| K24R+R34G+Y97H | 0.36 | 3 of 3 | 2 of 9 |
| Y97R+L100W+S103W | 1.55 | 3 of 3 | 3 of 9 |
| R34A+A40S+Q95G | 2.76 | 1 of 3 | 1 of 9 |
| S26K+V29D+R99D | 2.06 | 3 of 3 | 3 of 9 |
| R34H+R60A+Y97H | no signal | 0 of 3 | 0 of 9 |
| S28D+N35D+Q95D | no signal | 0 of 3 | 1 of 9 |